Test results: BindingDB's records for 10585211
pKi: −log10 of the molar value.

Sequences of proteins named here, by UniProt entry; tags and fusion partners are left off. A change or cut given only in a name is not applied to a line headed by its entry.
UniProt Q62758: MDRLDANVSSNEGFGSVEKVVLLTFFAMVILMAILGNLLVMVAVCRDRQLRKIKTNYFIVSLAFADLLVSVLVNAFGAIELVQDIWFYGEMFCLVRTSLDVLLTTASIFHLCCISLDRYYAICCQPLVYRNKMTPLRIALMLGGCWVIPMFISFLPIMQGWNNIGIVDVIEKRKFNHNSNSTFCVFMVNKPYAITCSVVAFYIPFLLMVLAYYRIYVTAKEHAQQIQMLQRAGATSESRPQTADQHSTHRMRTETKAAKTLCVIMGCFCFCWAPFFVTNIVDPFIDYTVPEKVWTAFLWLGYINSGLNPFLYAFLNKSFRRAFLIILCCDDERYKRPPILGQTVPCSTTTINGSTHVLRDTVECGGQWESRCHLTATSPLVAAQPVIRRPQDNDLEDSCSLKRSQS

Biological target: 5-hydroxytryptamine receptor 4 (Rattus norvegicus, UniProt Q62758)
Experiment: In vitro affinity at serotonergic 5-hydroxytryptamine 4 receptor by radioligand binding assay using [3H]GR-113808 in rat striatum membranes.

O=C(OC1CN2CCC1CC2)c1cccc2nc[nH]c12 (stereo unspecified)
pKi: < 5.00
